Source: patent US8008333B2, “Single dose aromatase inhibitor for treating infertility” (Ares Trading S.A., priority 2001, dated 2011)

Tested on: infertile patients (PCOS, unexplained infertility)

N#Cc1ccc(C(c2ccc(C#N)cc2)n2cncn2)cc1 [letrozole]
Day of hCG administration (Letrozole 5 days cycle): 13.2 (2.5)
Day of hCG administration (Letrozole single-dose cycles): 12.9 (2.9)

Read-outs that look alike come from different tables or passages of the source.
